These are literature values, as cited in paper PMC11855478, “Bicyclic N,S-Acetals Containing Fused Cysteine-Amide System as New Heterocyclic Class Targeting Human Farnesyltransferase (FTase-h)” (International Journal of Molecular Sciences, 2025).

The target of this series is FTase. The following applies: known FTIs, Figure 1; cited from earlier work.

Structures are written as SMILES.

Take `NC(=O)N1CCC(CC(=O)N2CCC([C@H]3c4ncc(Br)cc4CCc4cc(Cl)cc(Br)c43)CC2)CC1` [Lonafarnib (SCH 66336), Lonafarnib]: the IC50 (as a rule, the concentration that gives 50% inhibition) was 1.9 nM.
